Patent publication US20100034823A1

Biological target: recombinant human TNF (human) (UniProt P01375)
Test: cell-based or functional assay

monoclonal antibody D2E7 (redissolved from crystal suspension prepared as in Example 36)
relative biological activity (L-929 cytotoxicity neutralisation; mean IC50 of reference standard / IC50 of sample x 100%): 111%
